Experiments:
[1] = target: T1, SERT (serotonin transporter) (Homo sapiens, UniProt P31645)
[2] = target: T1, SERT (serotonin transporter); experiment: biochemical
[3] = target: NMDA Receptor (MK-801 binding site); experiment: PDSP radioligand binding, NMDA receptor; details: Table 2

Sequences of proteins named here, by UniProt entry; tags and fusion partners are left off.
UniProt P31645, whole entry, species assumed: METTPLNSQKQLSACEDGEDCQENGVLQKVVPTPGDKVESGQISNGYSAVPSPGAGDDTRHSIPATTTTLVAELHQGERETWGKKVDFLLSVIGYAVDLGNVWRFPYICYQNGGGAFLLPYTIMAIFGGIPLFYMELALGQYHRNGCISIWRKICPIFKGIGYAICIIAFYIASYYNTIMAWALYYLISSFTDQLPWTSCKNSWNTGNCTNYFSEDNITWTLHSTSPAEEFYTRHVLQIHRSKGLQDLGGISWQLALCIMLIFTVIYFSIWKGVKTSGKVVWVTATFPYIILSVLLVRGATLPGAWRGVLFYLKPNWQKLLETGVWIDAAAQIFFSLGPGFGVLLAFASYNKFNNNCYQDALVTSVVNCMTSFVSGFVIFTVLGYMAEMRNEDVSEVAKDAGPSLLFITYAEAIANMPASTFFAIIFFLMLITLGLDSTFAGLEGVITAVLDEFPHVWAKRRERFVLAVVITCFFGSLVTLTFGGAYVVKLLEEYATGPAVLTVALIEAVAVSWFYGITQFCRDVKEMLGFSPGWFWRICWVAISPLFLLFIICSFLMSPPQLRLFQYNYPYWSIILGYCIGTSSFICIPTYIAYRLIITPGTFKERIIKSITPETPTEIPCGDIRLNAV

With `CCNC1(c2cccc(OC)c2)CCCCC1=O` (racemic) [Methoxetamine, (RS)-2-(ethylamino)-2-(3-methoxyphenyl)cyclohexanone] the “affinity for the serotonin transporter (SERT), in words” value [1] was “submicromolar affinities”, the Ki [2] was 481 nM and the “NMDA pKi +/− SD” value [3] was 6.59±0.06.
`CNC1(c2ccccc2Cl)CCCCC1=O` (racemic) [Ketamine, (RS)-2-(2-chlorophenyl)-2-(methylamino)cyclohexanone, reference compound] showed a Ki ([3]; read-out: NMDA (Ki)) of 659 nM.

Source: article PMC3602154 (PLoS ONE, 2013)
